Results on 1 protein are retold here after publication PMC3222833.

Substrate in data set [1]: CSCC[C@H](NC(=O)[C@H](CC(=O)O)NC(C)=O)C(=O)O
Put plainly: Saturation kinetics of substrate hydrolysis by mutated GCPII. The format is biochemical, human. The following applies: other: K699S mutant; 37.0 °C.

Substrate in data set [2]: CCCCCCCC(NC(=O)[C@H](CC(=O)O)NC(C)=O)C(=O)O
The description is as above. Type of data set: biochemical, human. The following applies: other: K699S mutant; 37.0 °C.

B1: rhGCPII(K699S) mutant (Homo sapiens; K699S) (protein)
chain: KSSNEATNITPKHNMKAFLDELKAENIKKFLYNFTQIPHLAGTEQNFQLAKQIQSQWKEFGLDSVELAHYDVLLSYPNKTHPNYISIINEDGNEIFNTSLFEPPPPGYENVSDIVPPFSAFSPQGMPEGDLVYVNYARTEDFFKLERDMKINCSGKIVIARYGKVFRGNKVKNAQLAGAKGVILYSDPADYFAPGVKSYPDGWNLPGGGVQRGNILNLNGAGDPLTPGYPANEYAYRRGIAEAVGLPSIPVHPIGYYDAQKLLEKMGGSAPPDSSWRGSLKVPYNVGPGFTGNFSTQKVKMHIHSTNEVTRIYNVIGTLRGAVEPDRYVILGGHRDSWVFGGIDPQSGAAVVHEIVRSFGTLKKEGWRPRRTILFASWDAEEFGLLGSTEWAEENSRLLQERGVAYINADSSIEGNYTLRVDCTPLMYSLVHNLTKELKSPDEGFEGKSLYESWTKKSPSPEFSGMPRISKLGSGNDFEVFFQRLGIASGRARYTKNWETNKFSGYPLYHSVYETYELVEKFYDPMFKYHLTVAQVRGGMVFELANSIVLPFDCRDYAVVLRKYADKIYSISMKHPQEMKTYSVSFDSLFSAVKNFTEIASKFSERLQDFDKSNPIVLRMMNDQLMFLERAFIDPLGLPDRPFYRHVIYAPSSHNSYAGESFPGIYDALFDIESKVDPSKAWGEVKRQIYVAAFTVQAAAETLSEVA
Take B1: in data set [1], the Km turned out to be 2.6 ± 1.1 µM, the kcat came out at 0.25 ± 0.04 s⁻¹ and the kcat/Km was determined as 96200 M⁻¹ s⁻¹. For the same protein, in data set [2], the Km was determined as 2.9 ± 0.7 µM, the kcat was determined as 0.37 ± 0.05 s⁻¹ and the kcat/Km is 128000 M⁻¹ s⁻¹.

For orientation: Km means the concentration of substrate that gives half-maximal velocity. Broadly, the kcat is the number of substrate molecules converted per active site and unit of time at saturation. In general, kcat/Km refers to the turnover number divided by the Michaelis constant.
